This is an account of results in publication PMC3813364 (Iranian Journal of Pharmaceutical Research : IJPR, 2013).

For series [1] the following is noted: cited from earlier work.
Series [2] deals with everted sacs of rat small intestine (jejunum). Kind of series: Etoposide mucosal-to-serosal transport across everted gut sac in absence or presence of excipients/P-gp inhibitor. To be noted: etoposide 25 μg/mL; verapamil 100 μg/mL, TPGS 0.002-0.1 mg/mL, PEG 400 0.05, 0.1 and 0.5% w/v; compared to control.
Series [3] has the same test system. Kind of series: LDH release of the everted gut sac. The settings on record: TPGS 0.1 mg/mL, PEG 0.5% w/v, 90 min. How it is done: The viability and any possible damage of the gut were evaluated by measuring the release of the cytosolic enzyme lactic dehydrogenase (LDH) as an indicator of cell damage ([18]). The LDH activity was determined in the incubation media in the absence or presence of the excipients using LDH-P kit from Kimia pajouhan (Tehran, Iran). The results were calculated as U/L/cm^2 of sac area (1 unit reduces 10^-6 mol pyruvate per min at pH of 7.5). The influence of excipients (using the maximum concentrations) on the viability of gut sac was measured at 30, 60 and 90 min and compared to the control group (without adding any excipient).

For series [4] the following is noted: dose of 1.0 g/Kg/day; cited from earlier work.

“Also recorded” adds a separate entry of the source.

With “D-α-tocopherol polyethylene glycol 1000 succinate [TPGS]”, the CMC in series [1] was 0.2 mg/mL. For the same substance, in series [2], the “Effect on absorptive transport/permeability of etoposide (in words)” value is “significantly enhanced; also recorded: significant effects”. Moreover, in series [3], the “LDH release in presence of excipient versus control” value is on record as “not notably changed”. Moreover, the Toxicity result in series [4] is reported as “non-toxic”.
